The values below come from patent publication EP1202975B1 (dated 2000).

Chains of the proteins cited; added tags and fusions are not shown. Residues count along the entry.
UniProt P08709, 61-212 limits assumed: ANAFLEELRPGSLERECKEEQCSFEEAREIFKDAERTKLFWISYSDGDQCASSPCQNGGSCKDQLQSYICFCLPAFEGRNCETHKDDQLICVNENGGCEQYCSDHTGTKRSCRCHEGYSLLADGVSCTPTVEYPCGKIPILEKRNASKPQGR
UniProt P08709, 213-466 limits assumed: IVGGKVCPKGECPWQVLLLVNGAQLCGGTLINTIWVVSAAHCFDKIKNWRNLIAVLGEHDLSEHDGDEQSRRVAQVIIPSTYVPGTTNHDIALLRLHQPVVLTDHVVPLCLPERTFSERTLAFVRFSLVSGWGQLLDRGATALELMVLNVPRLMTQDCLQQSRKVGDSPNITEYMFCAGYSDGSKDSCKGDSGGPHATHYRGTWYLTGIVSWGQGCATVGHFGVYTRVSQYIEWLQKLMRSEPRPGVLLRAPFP

The assay addresses TF-VIIa (Homo sapiens, UniProt P08709). In words: TF-VIIa Assay. To be noted: read-out: IC50 or % Inhibition TF-VIIa (30 µM); cells given as a plain number (IC50).

As a reminder, the IC50 is the midpoint of a concentration-inhibition curve. Consider `CNc1cccc(-c2c(Cl)nc(NCCc3ccccc3)c(=O)n2CC(=O)NCc2ccc(C(=N)N)cc2)c1` [compound 95], for which the IC50 amounted to 600 nM.
